Reference: patent US20220409722A1, “FENTANYL HAPTEN, FENTANYL HAPTEN-CONJUGATES, AND METHODS FOR MAKING AND USING” (published 2022)

How the values were obtained:
[1] = system: Sprague Dawley rats; experiment: Fentanyl dose-response on hotplate and oximeter in non-immunized rats, Experiment 3; settings: naloxone 0.1 mg/kg s.c. after final fentanyl dose
[2] = system: Sprague Dawley rats; experiment: Hotplate and oximeter after cumulative s.c. fentanyl in immunized rats, Experiment 4; settings: naloxone 0.1 mg/kg s.c.

## C=CCN1CC[C@]23c4c5ccc(O)c4O[C@H]2C(=O)CC[C@@]3(O)[C@H]1C5
[1]
  reversal of fentanyl-induced % SaO2 decrease: reversed % SaO2 levels to baseline values
  reversal of fentanyl-induced heart rate decrease: did not reverse BPM back to baseline
  reversal of fentanyl-induced hotplate latency: returned latencies to respond on the hotplate back to baseline levels
[2]; F-sKLH vaccinated group (not in controls)
  naloxone reversal of fentanyl-induced % SaO2: completely reversed
[2]; both groups
  naloxone reversal of fentanyl-induced bradycardia: completely reversed
